Screening results as filed in PubChem.
DT40 TDP1 no CPT – qHTS for Inhibitors of human tyrosyl-DNA phosphodiesterase 1 (TDP1): qHTS in cells in absence of CPT; hit rate 15% among 420,000; DT40 Tdp1-/- hTDP1 cells, no CPT, ATP luminescence, 48 h; Potency, µM (highest dose often 46.2 µM), usual class: inhibitors; AID 686978, 2013; note: nearly all actives have a fitted effect of over 55% in size
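Chicken DT40 Tdp1-/- cells stably complemented with human TDP1 were seeded at 400 cells/well with DMSO in place of 20 nM camptothecin. After compound pinning, cells grew at least 48 hr at 37 °C; viability read by CellTiter-Glo luminescence.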
uPA generation – inhibitors of cell surface uPA generation; cell surface uPA generation assay, qHTS; Potency, µM (highest dose often 38.3 µM), usual class: inhibitors; hit rate 0.31% among 330,000; active = well fitted inhibition curve with a large enough effect; inconclusive = small, poorly fitted or top-dose-only effect; inactive = no such curve, though single readings can be large or run the other way; tested in mouse RAW 264.7 cells; note: nearly all actives have a fitted effect of over 55% in size
miR-21 FLuc – raises the signal of a miR-21 reporter | AID 2288 | 340,000 tested, under 10 active | Potency, µM (series often up to 38.3 µM) | HeLa miR-21 FLuc reporter, luciferase, 48 h; active = well fitted rising curve with a large enough effect; inconclusive = small, poorly fitted or top-dose-only effect; inactive = no such curve, though single readings can be large or run the other way;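 further: miR-21 action dims this reporter so a rising signal means less miR-21 action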
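HeLa miR-21-FLuc reporter line, endogenous miR-21; 2000 cells/well in DMEM/10% FBS; compound titration up to ~40uM final, 48 h, 37 degree Celsius; luciferase detection reagent, 15 min lysis, CCD luminescence.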
TDP1 inh – TDP1 (human) enzyme inhibition; recombinant TDP1, AlphaScreen DNA substrate cleavage; Potency, µM (top dose mostly 130 µM), usual class: inhibitors; hit rate 0.28% among 350,000; AID 485290; note: nearly all actives have a fitted effect of over 40% in size
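Tdp1 1 nM final; 15 min RT w/ cpd; substrate 15 nM, 5 min; beads 10 ug/ml, 10 min; AlphaScreen read. Neg ctrl: no enzyme.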
DT40 TDP1 CPT – growth inhibition of DT40 Tdp1-/-;hTDP1 cells with camptothecin (screen for TDP1 inhibitors); chicken DT40 Tdp1-/-;hTDP1 cells + 20 nM CPT, ATP luminescence, 48 h; Potency, µM (series often up to 46.2 µM), usual class: inhibitors; hit rate 12% among 420,000; AID 686979; note: nearly all actives have a fitted effect of over 55% in size
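Chicken DT40 Tdp1-/- cells stably complemented with human TDP1 were seeded at 400 cells/well in medium containing 20 nM camptothecin, exposed to pin-transferred compounds, and grown at 37 °C for at least 48 hr. Viability was read as ATP luminescence.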
Numbers stand for hits; - = inactive; ? = inconclusive; . = not tested or not shown. Sampled rows, rich in hits. Any-hit rate of the full collection: about 16%. Unless noted, calls come from the whole dose curve; as a rule, active = well fitted curve in the direction sought with a large enough effect; inconclusive = small, poorly fitted or top-dose-only effect, or another doubt; inactive = no such curve, though single readings can be large; an effect the other way counts as inactive or inconclusive.

SMILES	DT40 TDP1 no CPT	uPA generation	miR-21 FLuc	TDP1 inh	DT40 TDP1 CPT
COc1ccc(-c2coc3c(C(=O)NCc4cccs4)cccc23)c(C)c1	18µM	.	.	.	23µM
COc1cccc(C(=O)NCc2ccco2)c1	-	-	-	.	-
COc1ccc(-c2coc3c(C(=O)NCc4ccco4)cccc23)c(C)c1	?	.	.	.	18µM
COc1ccc(CNC(=O)c2ccc(-n3ccnc3)c3ccoc23)cc1OC	?	.	.	.	18µM
Cn1cc(-c2coc3c(C(=O)NCc4cccc(Cl)c4)cccc23)cn1	5.8µM	.	.	.	?
O=C(Nc1ccccc1-c1nc2ccccc2[nH]1)c1sc2ccccc2c1Cl	.	.	-	-	.
CC(=O)c1ccc(NC(=O)C(C)OC(=O)c2ccc3c(c2)nc(C)n3-c2ccccc2)cc1 (stereo not given)	-	-	-	-	-
Cc1ccc(NC(=O)N(CCC#N)Cc2ccccc2)cc1	-	-	-	-	-
N#Cc1ccc(Oc2cccnc2)cc1C#N	-	-	-	-	-
COc1ccc(-c2coc3c(C(=O)NCc4cccc(Cl)c4)cccc23)c(C)c1	15µM	.	.	.	15µM
COc1ccc(-c2coc3c(C(=O)NCc4ccc(C(F)(F)F)cc4)cccc23)c(C)c1	-	.	.	.	?
O=C(NCc1cccc(Cl)c1)c1ccc(-n2cncn2)c2ccoc12	?	.	.	.	16µM
COc1ccc(Br)c(C(=O)NCC2CCCCC2)c1	-	-	-	-	-
COc1ccc(CNC(=O)c2ccc(-n3cncn3)c3ccoc23)cc1OC	?	.	.	.	-
COc1ccc(-c2coc3c(C(=O)NCC4CC4)cccc23)c(C)c1	26µM	.	.	.	6.5µM
Cc1occc1C(=O)NN=C1C2CC3CC(C2)CC1C3	-	-	-	-	-
CC[C@]12c3[nH]c4ccccc4c3CCN1C(=O)C(CC(=O)NCCC1=CCCCC1)C[C@@H]2C(=O)N1CCN(C(=O)c2ccco2)CC1 (stereo not given in full)	?	-	.	-	?
CC(=O)Nc1ccc2nc(NC(=O)COc3cccc(C)c3)sc2c1	?	-	-	-	-
Cc1ccc(C)n1-c1ccc(N(C)C)cc1	29µM	-	-	-	?
Cc1ccc(N(C)C)cc1	.	.	.	-	.
CCc1c(C)nc2cc(-c3ccc(Cl)cc3)[nH]n2c1=O	2.3µM	-	-	.	3.7µM
CCc1c(C)nc2cc(-c3cccc(Br)c3)[nH]n2c1=O	1.5µM	-	-	.	4.6µM
c1cc(-c2nsc(-c3ccncc3)n2)ccn1	?	-	-	.	-
CC(C)CC1C(=O)N(Cc2cn(CCC3OCCO3)nn2)CCS(=O)(=O)N1Cc1ccc(-c2cccc(CO)c2)cc1 (stereo not given)	23µM	.	.	.	?
CC(C)C1C(=O)N(Cc2cn(CCC3OCCO3)nn2)CCS(=O)(=O)N1Cc1ccc(-c2cccc(CO)c2)cc1 (stereo not given)	23µM	.	.	.	?
SMILES	DT40 TDP1 no CPT	uPA generation	miR-21 FLuc	TDP1 inh	DT40 TDP1 CPT
CC1C(=O)N(Cc2cn(CCC3OCCCO3)nn2)CCS(=O)(=O)N1Cc1ccc(-c2cccc(CO)c2)cc1 (stereo not given)	?	.	.	.	-
CC(C)CC1C(=O)N(Cc2cn(CCC3OCCO3)nn2)CCS(=O)(=O)N1Cc1ccc(-c2cccc(N(C)C)c2)cc1 (stereo not given)	21µM	.	.	.	?
COC(=O)c1c(NC(=O)C2c3ccccc3Oc3ccccc32)sc2c1CCC(C(C)(C)C)C2 (stereo not given)	?	.	-	-	?
CCc1oc(C(=O)O)cc1CN(CC)CC	-	-	-	-	-
CCN(CC)Cc1cc(O)c(CN(CC)CC)cc1O	4.1µM	-	-	7.9µM	6.5µM
CCn1c(=O)c2sccc2n2c(CCCC(=O)N3CCN(c4ccc(F)cc4)CC3)nnc12	18µM	.	-	-	15µM
CCn1c(=O)c2sccc2n2c(CCC(=O)N3CCN(c4ccccc4OC)CC3)nnc12	-	.	-	-	-
CCCn1c(=O)c2sccc2n2c(CCCC(=O)NCCc3ccc(Cl)cc3)nnc12	21µM	.	-	-	?
Cn1c(=O)c2sccc2n2c(CCC(=O)N3CCN(c4ccccc4)CC3)nnc12	-	.	-	-	?
CCCn1c(=O)c2sccc2n2c(CCCC(=O)N3CCN(c4ccccc4OC)CC3)nnc12	?	.	-	-	18µM
